Where “and” joins values, the source holds several entries; their conditions need not be identical. Equal entries are not always repeated.
Key:
[1] = Blend uniformity: HPLC assay of random blend samples; conditions: 6 samples, Lactohale 200 carrier
[2] = Particle size distribution by laser diffraction (micronization); conditions: for Particle Size VMD / Particle Size X10 / Particle Size X50 / Particle Size X90: micronized material
[3] = Aerodynamic particle size determination by Next Generation Impactor (NGI)
[4] = Thermogravimetric analysis (TGA) of micronized and non-micronized material; conditions: FIG. 1
[5] = 50 μg TRN-157 blend with 10 mg Lactohale, Mean of NGI 1-3
[6] = 50 μg TRN-157 blend with 10 mg Lactohale, single NGI run
[7] = 50 μg TRN-157 blend with 20 mg Lactohale, Mean of NGI 1-3
[8] = 50 μg TRN-157 blend with 20 mg Lactohale, single NGI run
[9] = TRN-157/mometasone blend, Lactohale 200 carrier, Mean of NGI runs
[10] = TRN-157/mometasone blend, Respitose SV003 carrier, Mean of NGI 1-6

SMILES: C[N+]1(C)C2CC[C@@H]1[C@@H](OC(=O)[C@](O)(c1ccccc1)C1CCCC1)C2.[Br-]
- TRN-157 Blend Assay % RSD (uniformity of blend) [1]: 3.8%
- starting particle size X50 ([2]; before micronization): 12 μm
- starting particle size X90 ([2]; before micronization): 40 μm
- Particle Size VMD ([2]; Average of 3 replicates): 2.12 μm
- Particle Size X10 ([2]; Average of 3 replicates): 0.52 μm
- Particle Size X50 ([2]; Average of 3 replicates): 1.93 μm
- Particle Size X90 ([2]; Average of 3 replicates): 3.94 μm
- Particle Size VMD ([2]; single replicate): 2.18 μm and 2.07 μm and 2.11 μm
- Particle Size X10 ([2]; single replicate): 0.51 μm and 0.52 μm (2×)
- Particle Size X50 ([2]; single replicate): 1.97 μm and 1.89 μm and 1.92 μm
- Particle Size X90 ([2]; single replicate): 4.08 μm and 3.82 μm and 3.93 μm
- FPD [3, 5]: 12.96 µg
- FPF [3, 5]: 34.5%
- NGI Capsule [3, 5]: 2.295 µg
- NGI Device [3, 5]: 10.940 µg
- NGI Preseparator [3, 5]: 12.995 µg
- NGI Stage 1 [3, 5]: 2.184 µg
- NGI Stage 2 [3, 5]: 3.567 µg
- NGI Stage 3 [3, 5]: 4.342 µg
- NGI Stage 4 [3, 5]: 4.485 µg
- NGI Stage 5 [3, 5]: 1.594 µg
- NGI Stage 6 [3, 5]: 0.401 µg
- NGI Stage 7 [3, 5]: 0.060 µg
- NGI Throat [3, 5]: 7.925 µg
- FPD [3, 6]: 12.15 µg and 14.53 µg and 12.22 µg
- FPF [3, 6]: 31.3% and 38.0% and 34.3%
- NGI Capsule [3, 6]: 2.610 µg and 1.996 µg and 2.278 µg
- NGI Preseparator [3, 6]: 12.225 µg and 13.200 µg and 13.560 µg
- NGI Stage 1 [3, 6]: 2.036 µg and 2.280 µg and 2.237 µg
- NGI Stage 2 [3, 6]: 3.764 µg and 3.412 µg and 3.525 µg
- NGI Stage 3 [3, 6]: 4.004 µg and 4.624 µg and 4.398 µg
- NGI Stage 4 [3, 6]: 3.924 µg and 5.344 µg and 4.186 µg
- NGI Stage 5 [3, 6]: 1.560 µg and 1.922 µg and 1.300 µg
- NGI Throat [3, 6]: 10.840 µg and 6.810 µg and 6.125 µg
- FPD [3, 7]: 9.7 µg
- FPF [3, 7]: 26.0%
- NGI Capsule [3, 7]: 1.436 µg
- NGI Device [3, 7]: 10.694 µg
- NGI Preseparator [3, 7]: 17.153 µg
- NGI Stage 1 [3, 7]: 2.459 µg
- NGI Stage 2 [3, 7]: 3.356 µg
- NGI Stage 3 [3, 7]: 2.977 µg
- NGI Stage 4 [3, 7]: 3.248 µg
- NGI Stage 5 [3, 7]: 1.138 µg
- NGI Stage 6 [3, 7]: 0.333 µg
- NGI Stage 7 [3, 7]: 0.040 µg
- NGI Throat [3, 7]: 6.610 µg
- FPD [3, 8]: 11.32 µg and 8.67 µg and 9.22 µg
- FPF [3, 8]: 28.8% and 23.1% and 26.2%
- NGI Device [3, 8]: 8.130 µg and 8.393 µg and 15.560 µg
- NGI Preseparator [3, 8]: 17.820 µg and 17.339 µg and 16.300 µg
- NGI Stage 1 [3, 8]: 2.484 µg and 2.685 µg and 2.207 µg
- NGI Stage 2 [3, 8]: 3.433 µg and 3.372 µg and 3.263 µg
- NGI Stage 3 [3, 8]: 3.732 µg and 1.960 µg and 3.240 µg
- NGI Stage 4 [3, 8]: 3.588 µg and 3.291 µg and 2.865 µg
- NGI Stage 5 [3, 8]: 1.402 µg and 1.067 µg and 0.945 µg
- NGI Throat [3, 8]: 6.280 µg and 7.436 µg and 6.115 µg
- change of particle size distribution (NGI) on storage ([3]; 1 month at 25° C./60% RH and 40° C./75% RH): no significant change
- FPD [3, 9]: 1.2 µg
- FPF [3, 9]: > 30% and 38.8%
- NGI Capsule [3, 9]: 0.200 µg
- NGI Device [3, 9]: 1.000 µg
- NGI Preseparator [3, 9]: 1.000 µg
- NGI Stage 1 [3, 9]: 0.600 µg
- NGI Stage 2 [3, 9]: 0.400 µg
- NGI Stage 3 [3, 9]: 0.400 µg
- NGI Stage 4 [3, 9]: 0.400 µg
- NGI Stage 5 [3, 9]: 0.200 µg
- NGI Stage 6 [3, 9]: 0.000 µg
- NGI Stage 7 [3, 9]: 0.000 µg
- NGI Throat [3, 9]: 0.700 µg
- NGI Preseparator ([3]; TRN-157/mometasone blend, Lactohale 200 carrier, single NGI run): 0.902 µg and 1.003 µg and 1.180 µg
- FPD [3, 10]: 0.9 µg
- NGI Capsule [3, 10]: 0.146 µg
- NGI Device [3, 10]: 0.431 µg
- NGI Preseparator [3, 10]: 2.100 µg
- NGI Stage 1 [3, 10]: 0.141 µg
- NGI Stage 2 [3, 10]: 0.209 µg
- NGI Stage 3 [3, 10]: 0.289 µg
- NGI Stage 4 [3, 10]: 0.318 µg
- NGI Stage 5 [3, 10]: 0.125 µg
- NGI Stage 6 [3, 10]: 0.030 µg
- NGI Stage 7 [3, 10]: 0.005 µg
- NGI Throat [3, 10]: 0.804 µg
- FPD ([3]; TRN-157/mometasone blend, Respitose SV003 carrier, single NGI run): 1.0 µg and 0.8 µg and 0.9 µg
- FPF ([3]; TRN-157 used alone (lactose blend without mometasone), initial time points): 35-40%
- increase of aerodynamic particle size ([3]; at 12 months, 25° C./60% RH): 0.4 μm
- aerodynamic particle size distribution ([3]; in the various blends): about 2.4 μm
- TGA pattern, micronized vs non-micronized material [4]: no change in the physical structure

Reference: patent publication US10835514B2, “Dry powder inhaler compositions of 7-azoniabicyclo[2.2.1]heptane derivatives” (dated 2020)
